Consider one molecule from patent publication US9987266B2, “Alkyl-amide-substituted pyridyl compounds useful as modulators of IL-12, IL-23 and/or IFNα responses” (BRISTOL-MYERS SQUIBB COMPANY, priority 2013, dated 2018).

By UniProt entry, the sequences of proteins in these tests, tags left out. Chains listed by the source or under a name are the forms on record and can include a tag or linker. Residues count along the entry.
UniProt P29597, 575-869 with tags or gaps: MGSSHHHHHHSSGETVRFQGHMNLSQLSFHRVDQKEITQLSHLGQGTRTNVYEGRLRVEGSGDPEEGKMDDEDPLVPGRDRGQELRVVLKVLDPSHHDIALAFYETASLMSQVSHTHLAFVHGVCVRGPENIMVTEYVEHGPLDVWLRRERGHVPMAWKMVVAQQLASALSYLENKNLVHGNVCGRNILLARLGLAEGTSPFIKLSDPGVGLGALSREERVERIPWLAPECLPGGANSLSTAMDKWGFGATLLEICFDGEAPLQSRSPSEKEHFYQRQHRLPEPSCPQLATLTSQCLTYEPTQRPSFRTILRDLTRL

pEC50, pIC50: −log10 of the molar value.

For orientation: pEC50 means the EC50 on a negative log10 scale, so that one unit is a factor of ten.

The subject of experiment [1] is Kit225 T cells with STAT-dependent luciferase reporter stimulated with human recombinant IL-23. The experiment in a line: Kit225 T cell assay, IL-23 stimulated STAT-dependent luciferase reporter. The class given is cell-based. As to conditions: read-out: IL-23 Kit225 Reporter, LE (IC50), 20 ng/mL human recombinant IL-23, 5-6 hours. The protocol: (§1) Kit225 T cells with a stably-integrated STAT-dependent luciferase reporter were plated in RPMI (Gibco) containing 10% heat-inactivated FBS (Gibco) and 100 U/mL PenStrep (Gibco). The cells were then stimulated with either 20 ng/mL human recombinant IL-23 or 200 U/mL human recombinant IFNα (PBL InterferonSource) for 5-6 hours. Luciferase expression was measured using the STEADY-GLO® Luciferase Assay System (Promega) according to the manufacturer's instructions. Inhibition data were calculated by comparison to no inhibitor control wells for 0% inhibition and non-stimulated control wells for 100% inhibition.
On the technique in general: Reporter assays use an easily measured gene product as a stand-in for the process of interest.

In experiment [2] the target is recombinantly expressed His-tagged protein corresponding to amino acids 575-869 of human Tyk2 (Homo sapiens, UniProt P29597). Briefly: Probe displacement assay (scintillation proximity, radiolabeled probe). The class given is binding. As to conditions: read-out: Probe Displacement Data (EC50); 2.5 nM Tyk2 (575-869), 40 nM [3H] probe, 30 minutes at room temperature.
The subject of experiment [3] is Kit225 T cells with STAT-dependent luciferase reporter stimulated with human recombinant IFNα. The experiment in a line: Kit225 T cell assay, IFNα stimulated STAT-dependent luciferase reporter. In kind it is cell-based. To be noted: read-out: IFNa Kit225 Reporter, LE (IC50), 200 U/mL human recombinant IFNα, 5-6 hours. The procedure:
as §1

With `CNC(=O)c1cnc(NC(=O)c2ccnc(N)c2)cc1Nc1ccc(Cl)cc1OC`, the pIC50 is 5.49 in experiment [1] and 5.17 in experiment [3]. Moreover, the pEC50 in experiment [2] was 6.89.
